The assay concerns the target recombinant human KHK-C (Homo sapiens, UniProt P50053). Briefly: Human KHK-C inhibition assay (Assay A, ADP-GLO Kinase Assay). As to conditions: read-out: KHK inhibition assay (Assay A) IC50; His-tagged human KHK-C (1 µg/ml), 400 µM D-fructose, 200 µM ATP, 60 min at room temperature. (In general: ADP-Glo turns the ADP formed in a reaction into a luminescent signal.)

By UniProt entry, the sequences of proteins in these tests, tags left out.
UniProt P50053, whole entry: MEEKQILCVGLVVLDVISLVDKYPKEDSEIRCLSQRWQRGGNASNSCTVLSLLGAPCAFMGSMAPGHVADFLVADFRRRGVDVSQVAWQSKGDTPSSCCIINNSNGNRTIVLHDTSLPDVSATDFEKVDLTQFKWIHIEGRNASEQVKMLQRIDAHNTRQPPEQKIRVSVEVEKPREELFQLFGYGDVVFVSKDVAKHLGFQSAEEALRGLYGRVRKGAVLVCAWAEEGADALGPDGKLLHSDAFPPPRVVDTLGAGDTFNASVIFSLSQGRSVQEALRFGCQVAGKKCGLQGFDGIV

This is a selection: effects in other tests are not listed, and their absence says nothing.

Regarding “({[3-({6-[cis-octahydropyrrolo[3,4-c]pyrrol-2-yl]-3-cyano-4-(trifluoromethyl)pyridin-2-yl}amino)-4-methylsulfanyl)phenyl]methoxy}(methyl)phosphinic acid”, the IC50 amounted to 2.3 nM.

For orientation: IC50 means the concentration that inhibits the measured activity by half.

(Values after EP4630114B1, “NEW CYANOPYRIDINE KHK INHIBITOR COMPOUNDS” (dated 2026).)
